Values of other authors as cited in publication PMC5672791 (Journal of medicinal chemistry, 2015).

Columns and labels:
[1] = system: mMC4R mutations (E92K, F253S); details: cited from earlier work
[2] = system: MC3R and/or MC4R; details: fasted mice; cited from earlier work

Ac-Nle-c[Asp-His-DNal(2′)-Arg-Trp-Lys]-NH2 [SHU9119]
binding to mMC4R mutations E92K, F253S [1]: minimal effects
feeding after i.c.v. injection [2]: significant increased feeding
